Assay results published in article PMC5929447, “S55746 is a novel orally active BCL-2 selective and potent inhibitor that impairs hematological tumor growth” (Oncotarget, 2018).

Amino acid sequences for entries named in this document (tags omitted).
UniProt P10415, whole entry: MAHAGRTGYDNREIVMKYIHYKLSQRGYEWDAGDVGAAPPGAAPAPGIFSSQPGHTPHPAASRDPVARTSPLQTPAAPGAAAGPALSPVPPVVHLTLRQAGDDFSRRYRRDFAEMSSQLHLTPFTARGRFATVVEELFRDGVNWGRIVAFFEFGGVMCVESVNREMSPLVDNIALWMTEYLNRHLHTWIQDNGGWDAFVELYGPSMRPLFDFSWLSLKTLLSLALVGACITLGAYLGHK

Key:
Type in all cases: binding
[1] = target: T1, BCL-2 (Homo sapiens, UniProt P10415); assay: Fluorescence polarization (FP) with Fluorescein-PUMA, BCL-2; conditions: Fluorescein-PUMA as binder; bottom limit for the FP assay 1.2 nM; read-out: FP_BCL-2_KI
[2] = target: T1, BCL-2; assay: Isothermal titration calorimetry (ITC), BCL-2; conditions: 25 °C; ND = not determinable (too potent); read-out: ITC_BCL-2_KD
Procedure: The protein was dialyzed prior to use in 2 L of 25 mM HEPES, 150 mM NaCl, 5% glycerol (v/v), 0.5% MTG (v/v) at pH 7.4 for 3 hours at room temperature. The protein was dialyzed using a 3.5 K MWCO Slide-A-Lyzer™ cassette. The protein solution was recovered, spin-filtered through a […] frit. The filtered protein was quantified by UV absorbance at 280 nm using an extinction coefficient of 36440 M^-1cm^-1. 500 ml of dialysis buffer was retained (remainder used to rinse out SCHOT bottle) and degassed for a minimum of 30 mins under vacuum with constant stirring. Typically, 50 μM protein was titrated from the syringe into the cell containing 5 μM compound. The solutions were carefully matched to ensure same solvent and buffer conditions were present in both syringe and cell (this is to minimize heat of dilution effects). The final solution was the dialysis buffer plus 1% DMSO and 0.05% P20. The experiment was performed over 13 injections with stirring at 1000 rpm, gain setting low and at 25° C. Pure water was used in the reference cell. The first injection was 0.5 μl with a duration of 1 second with a gap of 150 seconds until the further 12 injections of 3.05 μl with a duration 6.1 seconds and a 240 second interval between injections. Data was analyzed using the vendor supplied software, PEAQ-ITC Analysis Software. The data model used was the single site model. […]

[3] = target: T1, BCL-2; assay: Surface plasmon resonance affinity in solution (SPR AIS), BCL-2; conditions: read-out: SPR AIS_BCL-2_KD

With `CC1(C)CCC(c2ccc(Cl)cc2)=C(CN2CCN(c3ccc(C(=O)NS(=O)(=O)c4ccc(N[C@H](CCN5CCOCC5)CSc5ccccc5)c(S(=O)(=O)C(F)(F)F)c4)cc3)CC2)C1` [ABT-263, reference compound] the Ki [1] was 4.5 nM, the Kd [2] was 3.7 nM and the Kd [3] was 2.1 nM.
